The values that follow come from ChEMBL document CHEMBL1151413, “Isolation and pharmacological characterization of vernolepin” (J Nat Prod, 1983).

For the test, the system named is Ileum. Briefly: Inhibition of histamine-induced guinea pig ileum contraction. In kind it is functional, tissue-based. The note with it: Cavia porcellus.

In the case of `C=C[C@@]12COC(=O)C(=C)[C@@H]1[C@H]1OC(=O)C(=C)[C@@H]1[C@@H](O)C2` [VERNOLEPIN], the Activity entry is “tde”.
